## Ab-14 heavy chain CDR variants: yeast mating affinities

All variants were tested on one target, the spike HR2 peptide PDVDLGDISGINAS (SARS-CoV-2).

Ab-14 is the parent antibody, in scFv form: VH, then three GGGGS repeats, then VL. The light chain is unchanged in all variants.
VH: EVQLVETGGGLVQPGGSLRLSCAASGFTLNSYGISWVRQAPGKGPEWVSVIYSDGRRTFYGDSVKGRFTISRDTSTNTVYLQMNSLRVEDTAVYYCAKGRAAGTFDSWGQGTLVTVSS
VL: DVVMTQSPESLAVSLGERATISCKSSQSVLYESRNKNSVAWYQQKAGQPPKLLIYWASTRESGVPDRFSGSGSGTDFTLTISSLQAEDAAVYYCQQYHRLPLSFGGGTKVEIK

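The parent was found by panning a naive human phage display library on the peptide. In library AAYL49, one, two or three CDR residues were substituted; doubles and triples were drawn at random. Affinity was read by AlphaSeq, a pooled yeast mating assay with surface-displayed partners. After mating in shaken culture at 30 °C for 16 h, diploids were selected and their barcode pairs sequenced. The ratio of observed to expected reads was calibrated, replicate by replicate, on BCL2-family standards whose Kd was known from biolayer interferometry. Mating was done three times.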

Substitutions are numbered in sequence along the VH above, starting at 1 (not Kabat).
All variants listed here change T58 of the VH, counted from its first residue.
Values are apparent Kd, the geometric mean of the replicates that gave a signal; lower means stronger binding.
A pair that was not seen in any replicate is written "no signal"; this usually means weak binding, but a binder can also be missed.
Background: pairings of library AAYL49 with three empty control strains gave a value in 15% of cases (median 11 µM, 5th percentile 680 nM). Values in that range, when seen in few replicates, are hard to tell from nonspecific mating.

The variant T28M I34E T58I showed 26 µM (3 of 3 replicates).
The variant T58S A102M showed 11 nM (3 of 3 replicates).
The variant S31F T58M Y60I showed 13 µM (1 of 3 replicates).
The variant G33A T58C F59R showed 8.3 nM (3 of 3 replicates).
The variant S53M T58R showed 2.0 µM (1 of 3 replicates).
The variant R56E T58P T104S showed 45 µM (1 of 3 replicates).
The variant T58W A102T T104R showed 94 µM (2 of 3 replicates).
The variant D54T T58P S107H showed no signal (0 of 3 replicates).
The variant G26P G33P T58A showed no signal (0 of 3 replicates).
The variant I51L R57V T58C showed 190 µM (1 of 3 replicates).
The variant T58A G61W G99P showed 430 nM (1 of 3 replicates).
The variant I34L D54C T58L showed no signal (0 of 3 replicates).
The variant V50S S53R T58E showed no signal (0 of 3 replicates).
The variant T58F Y60S G99D showed no signal (0 of 3 replicates).
The variant S31T Y32G T58E showed no signal (0 of 3 replicates).
The variant T58W D62Q showed 12 µM (1 of 3 replicates).
The variant D54R T58L A101M showed no signal (0 of 3 replicates).
The variant S31H T58D T104H showed 24 nM (3 of 3 replicates).
The variant N30W R56M T58I showed 1.9 µM (1 of 3 replicates).
The variant V50D R57I T58M showed no signal (0 of 3 replicates).
The variant S35R Y52K T58M showed no signal (0 of 3 replicates).
The variant L29P N30W T58S showed no signal (0 of 3 replicates).
The variant S53N G55A T58N showed 9.3 µM (2 of 3 replicates).
The variant V50Y T58E A102S showed no signal (0 of 3 replicates).
The variant G26V T58D R100I showed no signal (0 of 3 replicates).
The variant I34R T58N G103T showed 3.1 µM (2 of 3 replicates).
The variant Y52I S53T T58N showed no signal (0 of 3 replicates).
The variant T58L K65H showed 64 µM (1 of 3 replicates).
The variant Y32F T58W showed 790 nM (1 of 3 replicates).
The variant G55H T58R T104Y showed no signal (0 of 3 replicates).
The variant T58G F59E G99L showed no signal (0 of 3 replicates).
The variant I34F G55C T58P showed 9.8 µM (2 of 3 replicates).
The variant T58E G61H G103R showed 190 nM (3 of 3 replicates).
The variant I51M R57S T58E showed no signal (0 of 3 replicates).
The variant N30E T58G A101D showed 3.8 µM (3 of 3 replicates).
The variant S31I T58D R100D showed no signal (0 of 3 replicates).
The variant Y52K S53R T58Y showed no signal (0 of 3 replicates).
The variant G55Y T58G A101T showed no signal (0 of 3 replicates).
The variant D54W R57M T58D showed 1.4 µM (1 of 3 replicates).
The variant I51H T58C F59C showed no signal (0 of 3 replicates).
The variant T58E A102F G103S showed no signal (0 of 3 replicates).
The variant T58A V64K A102I showed 770 nM (2 of 3 replicates).
The variant G55Y T58P G103Y showed no signal (0 of 3 replicates).

From the AlphaSeq antibody data of Engelhart et al. 2022 (doi:10.1038/s41597-022-01779-4), copy in the FLAb collection.